This is an account of results in US4006232A, “Therapeutic method of treating cardiac arrhythmias utilizing 3-substituted diphenylhydantoins” (Miles Laboratories, Inc., priority 1974, dated 1977).

A short description of the data set: in vivo. To be noted: mouse, ip. The procedure: The tests compounds were administered to groups consisting of 5 mice in varying intraperitoneal doses. Ten minutes after administration of a given dose of a compound, a mouse was transferred to a covered 300 ml glass beaker which contained a wad of cotton saturated with about 20 ml of chloroform. The animal was observed closely and removed from the beaker immediately after respiratory arrest. The heart was quickly exposed by making an incision through the abdomen, diaphragm, thorax and pericardium for visual inspection of ventricular rate and rhythm. Ventricular contractions were counted for 30 seconds. According to the procedure reported by Lawson (J. Pharmacol. Exp. Therap., 160:22 [1968]), animals with a ventricular rate not exceeding 100 contractions during the 30 second observation period were considered protected. Results obtained with each dose were used to calculate the mean effective doses (ED50) after the method of Litchfield and Wilcoxon (J. Pharmacol. Exp. Therap. 96: 99-113 [ 1949]).

Regarding `O=C1NC(=O)C(c2ccccc2)(c2ccccc2)N1` [I, 5,5-diphenyl-2,4-imidazolidinedione], the selectivity ratio was 2.54.
